Reference: US6930203B2, “Gelling agents or thickeners” (Applied NanoSystems B.V., priority 2001, dated 2005)

Assay: Solvent scope of N,N′-dialkylaldaramides (1%) or N,N′-dialkylpentaramides (1%): gelation/solubility behaviour in solvents
Type: physicochemical
Set-up: key: g = gelation; s = soluble; p = precipitates; c = crystallizes; ns = not soluble; v = viscous; g* = unstable gel, precipitates; cg = crystalline gel
Details: 1% gelling agent
From the text: It will be understood that the use of the present gelling agents or thickeners to prepare a gel or to thicken a composition is also encompassed by the invention. As is well known, gelling behavior of compounds or compositions is highly unpredictable. […] Preferably, the gelling phenomenon is thermo reversible.
Preferred examples include aromatic and nonaromatic hydrocarbons, alcohols, ethers, esters, aldehydes, alkanoic acids, epoxides, amines, halogenated hydrocarbons, silicon oils, vegetable oils, phosphoric esters, sulfoxides, water and mixtures thereof. In order to obtain a gel, the gelling agent or thickener is preferably mixed with the composition to be transformed to a gel in an amount of between 0.01 and 50 wt. %, based on the weight of the composition. In a preferred embodiment, the mixture of the gelling agent or thickener and the composition is heated to allow for an even better gel formation or thickening. Typically, the heating will involve raising the temperature of the mixture to about 30-175° C. until a clear solution is obtained. In an alternative embodiment, the gelling agent is first dissolved in a polar or apolar solvent and then added to or sprayed into a composition or solvent to be converted into a gel.
Solvent scope of N,N′-dialkylaldaramides (1%) or N,N′-dialkylpentaramides (1%) 1-24 refers to the compounds prepared in Examples 1-23)

Substance: dicyclohexyl D-mannaramide [Example 6]
- Gelation/solubility behaviour in 1,2-dichloroethane (1,2-dichloroethane): p
- Gelation/solubility behaviour in Cyclohexane (Cyclohexane): ns
- Gelation/solubility behaviour in Toluene (Toluene): ns
- Gelation/solubility behaviour in n-butylacetate (n-butylacetate): ns
